Experimental data as given in publication PMC9600270 (Cancers, 2022).

Columns and labels:
[1] = tested on: Rh30 cells; assay: N6L treatment, MTT cell viability, Rh30; assay type: cell-based; conditions: N6L 0-100 μM, 72 h
[2] = tested on: RD cells; assay: N6L treatment, MTT cell viability, RD; assay type: cell-based; conditions: N6L 0-100 μM, 72 h

`CC(=O)N[C@@H](CCCCNC(=O)[C@H](CCCNC(=N)N)NC(=O)[C@@H]1CCCN1C[C@@H](N)CCCCN)C(=O)NC(C)(C)C(=O)NCC(=O)N[C@@H](CCCCNC(=O)[C@H](CCCNC(=N)N)NC(=O)[C@@H]1CCCN1C[C@@H](N)CCCCN)C(=O)NC(C)(C)C(=O)NCC(=O)N[C@@H](CCCCNC(=O)[C@H](CCCNC(=N)N)NC(=O)[C@@H]1CCCN1C[C@@H](N)CCCCN)C(=O)NC(C)(C)C(=O)NCC(=O)N[C@@H](CCCCNC(=O)[C@H](CCCNC(=N)N)NC(=O)[C@@H]1CCCN1C[C@@H](N)CCCCN)C(=O)NC(C)(C)C(=O)NCC(=O)N[C@@H](CCCCNC(=O)[C@H](CCCNC(=N)N)NC(=O)[C@@H]1CCCN1C[C@@H](N)CCCCN)C(=O)NC(C)(C)C(=O)NCC(=O)N[C@@H](CCCCNC(=O)[C@H](CCCNC(=N)N)NC(=O)[C@@H]1CCCN1C[C@@H](N)CCCCN)C(=O)NC(C)(C)C(=O)NCC(N)=O` [N6L] showed an IC50 [1] of 10.2 µM and an IC50 [2] of 12.3 µM.
